What was measured:
[1] = system: HER2; experiment: CEER total HER2 expression level; assay type: cell-based, human; details: for Total HER2 (0.2 ug): Lim1215 cells, assay range 390-25000
[2] = system: HER3; experiment: CEER total HER3 expression level; assay type: cell-based, human; details: for Total HER3 (0.2 ug): Lim1215 cells, assay range 390-25000
[3] = system: RSK; experiment: CEER phospho RSK level; assay type: cell-based, human; details: Lim1215 cells, assay range 2.56-100
Excerpt: These were complemented by ErbB heterodimerization assays using CEER.

[4] = system: AKT; experiment: CEER phospho AKT level; details: Lim1215 cells, assay range 1.02-40
[5] = system: ERK; experiment: CEER phospho ERK level; details: Lim1215 cells, assay range 1.02-100
[6] = system: MEK; experiment: CEER phospho MEK level; details: Lim1215 cells, assay range 1.02-100
[7] = system: HER1; experiment: CEER total HER1 expression level; details: Lim1215 cells, assay range 7.8-500
[8] = system: HER3; experiment: CEER phospho HER3 activation level; details: Lim1215 cells, assay range 12.8-1500
[9] = system: HER2:HER3; experiment: CEER ErbB heterodimerization assay, HER2:HER3 dimer; details: Lim1215 cells, assay range 50-1500
[10] = system: HER1:HER2; experiment: CEER ErbB heterodimerization assay, HER1:HER2 dimer; details: Lim1215 cells, assay range 7.8-1000
[11] = system: HER1:HER3; experiment: CEER ErbB heterodimerization assay, HER1:HER3 dimer; details: Lim1215 cells, assay range 200-20000
[12] = EGFR sensitive colorectal cancer cell lines, up to 24 h of treatment

Substance: cetuximab
- HER2 protein levels (in words) [1, 12]: steady increase
- Total HER2 (0.2 ug) ([1]; 24 h, series 2 (FIG. 2; Control 4212)): 9079
- Total HER2 (0.2 ug) ([1]; 24 h, series 3 (FIG. 3; control 3025)): 5678
- Total HER2 (0.2 ug) ([1]; 24 h, series 4 (FIG. 4; DMSO 2581)): 4147
- Total HER2 (0.2 ug) ([1]; cetuximab 0 h): 2127
- Total HER2 (0.2 ug) ([1]; cetuximab 30 min): 2532
- Total HER2 (0.2 ug) ([1]; cetuximab 1 h): 2853
- Total HER2 (0.2 ug) ([1]; cetuximab 2 h): 2625
- Total HER2 (0.2 ug) ([1]; cetuximab 4 h): 2529
- Total HER2 (0.2 ug) ([1]; cetuximab 6 h): 2229
- Total HER2 (0.2 ug) ([1]; cetuximab 8 h): 3109
- HER3 protein levels (in words) [2, 12]: steady increase
- Total HER3 (0.2 ug) ([2]; 24 h, series 2 (FIG. 2; Control 7757)): 16288
- Total HER3 (0.2 ug) ([2]; 24 h, series 3 (FIG. 3; control 4282)): 8514
- Total HER3 (0.2 ug) ([2]; 24 h, series 4 (FIG. 4; DMSO 3388)): 7789
- Total HER3 (0.2 ug) ([2]; cetuximab 0 h): 3882
- Total HER3 (0.2 ug) ([2]; cetuximab 30 min): 4115
- Total HER3 (0.2 ug) ([2]; cetuximab 1 h): 5073
- Total HER3 (0.2 ug) ([2]; cetuximab 2 h): 4707
- Total HER3 (0.2 ug) ([2]; cetuximab 4 h): 5219
- Total HER3 (0.2 ug) ([2]; cetuximab 6 h): 4976
- Total HER3 (0.2 ug) ([2]; cetuximab 8 h): 5360
- Phos RSK (10 ug) ([3]; 24 h, series 2 (FIG. 2; Control 289 >ULOQ)): 5.4 pg/µg
- Phos RSK (10 ug) ([3]; 24 h, series 3 (FIG. 3; control […] >ULOQ)): 7.1 pg/µg
- Phos RSK (10 ug) ([3]; 24 h, series 4 (FIG. 4; DMSO 91.4)): 4.4 pg/µg
- Phos RSK (10 ug) ([3]; cetuximab 0 h): 76.0 pg/µg
- Phos RSK (10 ug) ([3]; cetuximab 30 min): 46.8 pg/µg
- Phos RSK (10 ug) ([3]; cetuximab 1 h): 45.7 pg/µg
- Phos RSK (10 ug) ([3]; cetuximab 2 h): 22.9 pg/µg
- Phos RSK (10 ug) ([3]; cetuximab 4 h): 10.9 pg/µg
- Phos RSK (10 ug) ([3]; cetuximab 6 h): 8.4 pg/µg
- Phos RSK (10 ug) ([3]; cetuximab 8 h): 5.2 pg/µg
- Phos AKT (10 ug) ([4]; 24 h, series 2 (FIG. 2; Control 9.6)): 1.8 pg/µg
- Phos AKT (10 ug) ([4]; cetuximab 0 h): 3.5 pg/µg
- Phos AKT (10 ug) ([4]; cetuximab 1 h): 3.6 pg/µg
- Phos AKT (10 ug) ([4]; cetuximab 2 h): 1.8 pg/µg
- Phos AKT (10 ug) ([4]; cetuximab 4 h): 1.3 pg/µg
- Phos AKT (10 ug) ([4]; cetuximab 6 h): 1.7 pg/µg
- Phos AKT (10 ug) ([4]; cetuximab 8 h): 1.7 pg/µg
- Phos ERK (10 ug) ([5]; 24 h, series 2 (FIG. 2; Control 5.7)): 0.87 pg/µg
- Phos ERK (10 ug) ([5]; 24 h, series 3 (FIG. 3; control 5.3)): 1.1 pg/µg
- Phos ERK (10 ug) ([5]; 24 h, series 4 (FIG. 4; DMSO 3.3)): 0.49 pg/µg
- Phos ERK (10 ug) ([5]; cetuximab 0 h): 3.3 pg/µg
- Phos ERK (10 ug) ([5]; cetuximab 30 min): 1.1 pg/µg
- Phos ERK (10 ug) ([5]; cetuximab 2 h): 1.4 pg/µg
- Phos ERK (10 ug) ([5]; cetuximab 4 h): 1.1 pg/µg
- Phos ERK (10 ug) ([5]; cetuximab 6 h): 0.56 pg/µg
- Phos ERK (10 ug) ([5]; cetuximab 8 h): 0.7 pg/µg
- Phos MEK (10 ug) ([6]; 24 h, series 2 (FIG. 2; Control 38.0)): 7.0 pg/µg
- Phos MEK (10 ug) ([6]; 24 h, series 3 (FIG. 3; control 16.3)): 2.7 pg/µg
- Phos MEK (10 ug) ([6]; 24 h, series 4 (FIG. 4; DMSO 9.8)): 1.5 pg/µg
- Phos MEK (10 ug) ([6]; cetuximab 0 h): 16.6 pg/µg
- Phos MEK (10 ug) ([6]; cetuximab 30 min): 9.0 pg/µg
- Phos MEK (10 ug) ([6]; cetuximab 1 h): 7.3 pg/µg
- Phos MEK (10 ug) ([6]; cetuximab 2 h): 7.0 pg/µg
- Phos MEK (10 ug) ([6]; cetuximab 4 h): 3.4 pg/µg
- Phos MEK (10 ug) ([6]; cetuximab 6 h): 2.9 pg/µg
- Phos MEK (10 ug) ([6]; cetuximab 8 h): 2.5 pg/µg
- Total HER1 (1 ug) ([7]; 24 h, series 2 (FIG. 2; Control 171.4)): 129.2
- Total HER1 (1 ug) ([7]; 24 h, series 3 (FIG. 3; control 137.2)): 86.9
- Total HER1 (1 ug) ([7]; 24 h, series 4 (FIG. 4; DMSO 96.8)): 46.5
- Total HER1 (1 ug) ([7]; cetuximab 0 h): 74.4
- Total HER1 (1 ug) ([7]; cetuximab 30 min): 40.9
- Total HER1 (1 ug) ([7]; cetuximab 1 h): 67.4
- Total HER1 (1 ug) ([7]; cetuximab 2 h): 46.9
- Total HER1 (1 ug) ([7]; cetuximab 4 h): 52.8
- Total HER1 (1 ug) ([7]; cetuximab 6 h): 60.2
- Total HER1 (1 ug) ([7]; cetuximab 8 h): 14.4
- Phos HER3 (10 ug) ([8]; 24 h, series 2 (FIG. 2; Control 236)): 651
- Phos HER3 (10 ug) ([8]; 24 h, series 3 (FIG. 3; control 573)): 1450
- Phos HER3 (10 ug) ([8]; 24 h, series 4 (FIG. 4; DMSO 204)): 637
- Phos HER3 (10 ug) ([8]; cetuximab 0 h): 257
- Phos HER3 (10 ug) ([8]; cetuximab 30 min): 223
- Phos HER3 (10 ug) ([8]; cetuximab 1 h): 263
- Phos HER3 (10 ug) ([8]; cetuximab 2 h): 261
- Phos HER3 (10 ug) ([8]; cetuximab 4 h): 264
- Phos HER3 (10 ug) ([8]; cetuximab 6 h): 200
- Phos HER3 (10 ug) ([8]; cetuximab 8 h): 273
- ErbB Dimer Formation HER2:HER3 (2 ug) ([9]; 24 h, series 2 (FIG. 2; Control 250.9)): 1343.1
- ErbB Dimer Formation HER2:HER3 (2 ug) ([9]; 24 h, series 3 (FIG. 3; control 211.8)): 952.8
- ErbB Dimer Formation HER2:HER3 (2 ug) ([9]; 24 h, series 4 (FIG. 4; DMSO 172.5)): 434.0
- ErbB Dimer Formation HER2:HER3 (2 ug) ([9]; cetuximab 0 h): 89.8
- ErbB Dimer Formation HER2:HER3 (2 ug) ([9]; cetuximab 30 min): 81.6
- ErbB Dimer Formation HER2:HER3 (2 ug) ([9]; cetuximab 1 h): 101.1
- ErbB Dimer Formation HER2:HER3 (2 ug) ([9]; cetuximab 2 h): 80.9
- ErbB Dimer Formation HER2:HER3 (2 ug) ([9]; cetuximab 4 h): 73.5
- ErbB Dimer Formation HER2:HER3 (2 ug) ([9]; cetuximab 6 h): 126.6
- ErbB Dimer Formation HER2:HER3 (2 ug) ([9]; cetuximab 8 h): 112.2
- ErbB Dimer Formation HER1:HER2 (2 ug) ([10]; 24 h, series 2 (FIG. 2; Control 128.5)): 197.8
- ErbB Dimer Formation HER1:HER2 (2 ug) ([10]; 24 h, series 3 (FIG. 3; control 46.0)): 79.5
- ErbB Dimer Formation HER1:HER2 (2 ug) ([10]; 24 h, series 4 (FIG. 4; DMSO 42.7)): 58.3
- ErbB Dimer Formation HER1:HER2 (2 ug) ([10]; cetuximab 0 h): 46.2
- ErbB Dimer Formation HER1:HER2 (2 ug) ([10]; cetuximab 30 min): 36.9
- ErbB Dimer Formation HER1:HER2 (2 ug) ([10]; cetuximab 1 h): 49.3
- ErbB Dimer Formation HER1:HER2 (2 ug) ([10]; cetuximab 2 h): 35.4
- ErbB Dimer Formation HER1:HER2 (2 ug) ([10]; cetuximab 4 h): 34.5
- ErbB Dimer Formation HER1:HER2 (2 ug) ([10]; cetuximab 6 h): 38.0
- ErbB Dimer Formation HER1:HER2 (2 ug) ([10]; cetuximab 8 h): 36.7
- ErbB Dimer Formation HER1:HER3 (0.5 ug) ([11]; 24 h, series 2 (FIG. 2; Control 387)): 645
- ErbB Dimer Formation HER1:HER3 (0.5 ug) ([11]; 24 h, series 3 (FIG. 3; control 398)): 1090
- ErbB Dimer Formation HER1:HER3 (0.5 ug) ([11]; 24 h, series 4 (FIG. 4; DMSO 186)): 353
- ErbB Dimer Formation HER1:HER3 (0.5 ug) ([11]; cetuximab 0 h): 121
- ErbB Dimer Formation HER1:HER3 (0.5 ug) ([11]; cetuximab 30 min): 128
- ErbB Dimer Formation HER1:HER3 (0.5 ug) ([11]; cetuximab 1 h): 107
- ErbB Dimer Formation HER1:HER3 (0.5 ug) ([11]; cetuximab 2 h): 89
- ErbB Dimer Formation HER1:HER3 (0.5 ug) ([11]; cetuximab 4 h): 116
- ErbB Dimer Formation HER1:HER3 (0.5 ug) ([11]; cetuximab 6 h): 147
- ErbB Dimer Formation HER1:HER3 (0.5 ug) ([11]; cetuximab 8 h): 129

Reference: patent US20160025730A1, “METHODS OF SELECTING COMBINATION THERAPY FOR COLORECTAL CANCER PATIENTS” (NESTEC S.A., priority 2013, published 2016)
